Results taken from paper PMC2001498, “Effects of transplantation and resection of a radiation-induced rat insulinoma on glucose homeostasis and the endocrine pancreas” (British Journal of Cancer, 1986).

Settings: plasma insulin (endogenous, tumour-derived) after resection of s.c. subscapular insulinoma 21 days after transplantation; sodium pentobarbitone anaesthesia 50 mg kg-1 i.p.; dextran-charcoal radioimmunoassay; groups of 12 rats

Substance: insulin
- estimated half-life of insulin: 3.5 min
